Laboratory results published in ChEMBL document CHEMBL5620362, “Discovery, structural optimization, and anti-tumor bioactivity evaluations of betulinic acid derivatives as a new type of RORγ antagonists” (Eur J Med Chem, 2023).

Amino acid sequences for entries named in this document (tags omitted). A change or cut given only in a name is not applied to a line headed by its entry.
UniProt P51449: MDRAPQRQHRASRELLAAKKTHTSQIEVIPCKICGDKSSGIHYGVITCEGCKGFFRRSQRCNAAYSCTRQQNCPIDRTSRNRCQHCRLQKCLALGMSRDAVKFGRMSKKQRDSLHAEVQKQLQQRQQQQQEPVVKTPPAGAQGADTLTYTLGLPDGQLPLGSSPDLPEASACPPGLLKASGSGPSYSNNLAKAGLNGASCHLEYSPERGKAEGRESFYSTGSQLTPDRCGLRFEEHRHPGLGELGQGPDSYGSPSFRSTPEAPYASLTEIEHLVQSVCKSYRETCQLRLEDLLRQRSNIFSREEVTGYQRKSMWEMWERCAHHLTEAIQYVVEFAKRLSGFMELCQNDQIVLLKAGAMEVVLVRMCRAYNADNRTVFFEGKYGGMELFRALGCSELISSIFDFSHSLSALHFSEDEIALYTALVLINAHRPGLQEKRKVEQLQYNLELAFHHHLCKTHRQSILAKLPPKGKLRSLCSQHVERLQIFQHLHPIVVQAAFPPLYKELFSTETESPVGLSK

What was measured:
[1] = biological target: T1, Nuclear receptor ROR-gamma (Homo sapiens, UniProt P51449); conditions: filed as antagonist, dose 20.0 µM
[2] = biological target: T1, Nuclear receptor ROR-gamma; conditions: filed as antagonist, dose 20.0 µM; remark: listed apart in the source

SMILES: C=C(C)[C@@H]1CC[C@]2(C(=O)O)CC[C@]3(C)[C@H](CC[C@@H]4[C@@]5(C)CC[C@H](O)C(C)(C)[C@@H]5CC[C@]43C)[C@@H]12 [BETULINIC ACID]
- deltaH [1]: -10.5 kcal/mol
- deltaS [2]: 3 kcal/mol
